Values quoted from earlier work as cited in article PMC4699860 (Biophysical Journal, 2015).

Tested on: Ras-GTP
Details: cited from earlier work

For Raf-1 RBD: Ras-binding domain of Raf-1, the “affinity for effector region of Ras-GTP (in words)” value is given as “nanomolar affinity”.
